Consider one molecule from PubChem BioAssay.

Protein sequences, listed by entry. Tags and fused reporters are not part of them.
UniProt Q16828, whole entry, looked up: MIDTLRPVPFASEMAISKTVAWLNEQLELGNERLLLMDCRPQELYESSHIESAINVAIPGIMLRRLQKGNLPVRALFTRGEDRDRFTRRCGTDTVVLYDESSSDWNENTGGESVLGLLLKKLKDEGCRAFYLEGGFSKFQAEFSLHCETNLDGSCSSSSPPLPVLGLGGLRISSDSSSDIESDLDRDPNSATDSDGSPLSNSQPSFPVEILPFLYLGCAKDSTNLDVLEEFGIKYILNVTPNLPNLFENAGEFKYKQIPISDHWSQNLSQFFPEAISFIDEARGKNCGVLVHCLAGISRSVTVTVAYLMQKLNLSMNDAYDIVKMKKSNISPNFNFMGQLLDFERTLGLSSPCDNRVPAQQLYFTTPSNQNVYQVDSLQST

The target of the assay is Dual specificity protein phosphatase 6 (Homo sapiens) (UniProt Q16828). In words: DUSP6 inhibitors restoring Erk phosphorylation by chemical complementation, primary imaging in DUSP6-transfected HeLa (AID 609).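 Further: phospho-Erk level distribution per well compared with pooled transfected vehicle control wells.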 The note with it: HeLa MKP-3 transfected, phospho-Erk imaging KS statistic; at 10 µM; hits give high values; cells stimulated with TPA for 15 min.

This is one part of the list. The source made the active and inactive calls.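 How the source made its calls: active means compounds giving at least 50% inhibition in the cell-based MKP-3 phosphatase rescue imaging test; inactive means the rest.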

In the case of `CCN(CC)CC(O)COC(=O)C(O)(c1ccccc1)C1CCCCC1` (stereo unspecified), the inhibition was inactive: 1.75%.
